This note sets out measurements from patent US6436918B1, “Steroid sulfatase inhibitors and methods for making and using the same” (Duquesne University of the Holy Ghost, priority 1997, dated 2002).

Protein sequences, listed by entry. Tags and fused reporters are not part of them. Residues count along the entry.
UniProt P08842, 22-583 limits assumed: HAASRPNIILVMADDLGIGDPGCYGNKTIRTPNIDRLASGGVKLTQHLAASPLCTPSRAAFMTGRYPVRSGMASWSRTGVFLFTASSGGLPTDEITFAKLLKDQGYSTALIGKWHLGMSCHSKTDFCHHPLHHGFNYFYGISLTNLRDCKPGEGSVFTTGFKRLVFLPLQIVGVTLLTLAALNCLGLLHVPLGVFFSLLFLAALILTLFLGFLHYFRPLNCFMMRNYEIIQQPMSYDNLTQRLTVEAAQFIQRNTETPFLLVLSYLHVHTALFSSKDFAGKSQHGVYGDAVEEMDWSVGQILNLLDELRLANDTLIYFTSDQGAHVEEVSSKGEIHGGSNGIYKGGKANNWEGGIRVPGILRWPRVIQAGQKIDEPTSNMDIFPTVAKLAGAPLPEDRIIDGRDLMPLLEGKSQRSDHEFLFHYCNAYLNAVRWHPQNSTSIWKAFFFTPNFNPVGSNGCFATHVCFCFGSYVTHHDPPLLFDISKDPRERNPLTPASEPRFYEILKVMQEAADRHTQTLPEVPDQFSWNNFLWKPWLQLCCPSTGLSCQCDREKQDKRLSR

SMILES strings stand for the structures.

The target of this test is recombinant human estrone sulfatase (Homo sapiens, UniProt P08842). Kind of test: in vitro conversion assay: inhibition of conversion of 3H-estrone sulfate to 3H-estrone by estrone sulfatase. To be noted: Table 2; 3H-estrone sulfate 3.3 nmole/L, 60 minutes at 37° C., pH 7; enzyme partially purified from transfected CHO cells. The format is biochemical.
With `CCCOC(=O)C1=CCC2C3CCc4cc(OS(N)(=O)=O)ccc4C3CCC12C` (centres unmarked), the IC50 (usually the concentration needed to halve the response being measured) worked out at 0.013 µM.

Regarding `CCN(CC)C(=O)C1=CC[C@H]2[C@@H]3CCc4cc(OS(N)(=O)=O)ccc4[C@H]3CC[C@]12C`, the IC50 was determined as 0.0036 µM.

For the compound `CCCNC(=O)C1=CC[C@H]2[C@@H]3CCc4cc(OS(N)(=O)=O)ccc4[C@H]3CC[C@]12C`, the IC50 turned out to be 0.005 µM.

As for `CCC(C)NC(=O)C1=CCC2C3CCc4cc(OS(N)(=O)=O)ccc4C3CCC12C` (centres unmarked), the IC50 was determined as 0.0035 µM.

Consider `CC(C)NC(=O)C1=CCC2C3CCc4cc(OS(N)(=O)=O)ccc4C3CCC12C` (centres unmarked), for which the IC50 turned out to be 0.0032 µM.

Regarding `CCNC(=O)C1=CC[C@H]2[C@@H]3CCc4cc(OS(N)(=O)=O)ccc4[C@H]3CC[C@]12C`, the IC50 worked out at 0.014 µM.

Take `CC(C)N(C(=O)C1=CC[C@H]2[C@@H]3CCc4cc(OS(N)(=O)=O)ccc4[C@H]3CC[C@]12C)C(C)C`: the IC50 stood at 0.0048 µM.

For `CC(C)CNC(=O)C1=CCC2C3CCc4cc(OS(N)(=O)=O)ccc4C3CCC12C` (centres unmarked), the IC50 was 0.01 µM.

Turning to `COC(=O)C1=CC[C@H]2[C@@H]3CCc4cc(OS(N)(=O)=O)ccc4[C@H]3CC[C@]12C`, the IC50 was determined as 0.012 µM.

In the case of `CCOC(=O)C1=CCC2C3CCc4cc(OS(N)(=O)=O)ccc4C3CCC12C` (centres unmarked), the IC50 amounted to 0.012 µM.

With `CC(C)(C)NC(=O)C1=CC[C@H]2[C@@H]3CCc4cc(OS(N)(=O)=O)ccc4[C@H]3CC[C@]12C`, the half-inhibitory concentration (IC50) is 0.012 µM.

Regarding `CNC(=O)C1=CCC2C3CCc4cc(OS(N)(=O)=O)ccc4C3CCC12C` (centres unmarked), the IC50 was found to be 0.012 µM.

With `CCCN(C)C(=O)C1=CCC2C3CCc4cc(OS(N)(=O)=O)ccc4C3CCC12C` (centres unmarked), the IC50 came to 0.0025 µM.

On to `CON(C)C(=O)C1=CC[C@H]2[C@@H]3CCc4cc(OS(N)(=O)=O)ccc4[C@H]3CC[C@]12C`, for which the IC50 was determined as 0.012 µM.
